Experimental data: patent publication US20240415819A1, “MACROCYCLIC COMPOUNDS AS PROTEASOME SUBUNIT BETA TYPE-5 INHIBITORS” (Lead Discovery Center GmbH, priority 2021, published 2024)

How the values were obtained:
[1] = molecular target: β5 subunit of the human immunoproteasome (IPS) (Homo sapiens, UniProt P28062); assay: β5 inhibition assay, human immunoproteasome (Suc-LLVY-AMC); assay type: biochemical; settings: read-out: IPS, IC50 class, Suc-LLVY-AMC substrate
Procedure: The enzymatic activity of the β5 subunit of the human constitutive proteasome (CPS) is analyzed. In another assay, which differs from the assay of the human constitutive proteasome only in using the human immunoproteasome (IPS) the enzymatic activity of the β5 subunit of the human immunoproteasome (IPS) is analyzed. Incubation of the enzyme with its fluorogenic substrate Suc-LLVY-AMC leads to liberation of the fluorescent dye AMC which can be measured with a suitable plate reader. • 100 mM HEPES pH7.5 • 50 mM NaCl • 0.02% SDS • 1 mM DTT (add fresh) • Victor X5 (Perkin Elmer) • Label: Umbeliferone (0.1s) • Excitation wavelength: 355 nm • Emission wavelength: 460 nm • 4 μl human cPS or IPS enzyme in assay buffer (final assay concentration 1 nM) or 4 μl assay buffer for negative controls • Compound addition via acoustic dispenser (Echo 520, Labcyte) • Mix and incubate @ RT for 10 min • 4 μl Suc-LLVY-AMC substrate (final assay concentration 22.6 μM) • Mix and incubate @ RT for 4 h (dark) • Stop reaction with 4 μl Bortezomib (final assay concentration 1 μM) • 15 min @ RT • Measure (Excitation 355 nm; Emission 460 nm)

[2] = tested on: A549 (human lung carcinoma cell line); assay: Glo assay of A549 cells (Table 3; ProteasomeGlo plating scheme); assay type: cell-based; settings: read-out: PGLo A549
Description: Inhibition is indicated as IC50 [nM] (“-”=not measured). […] • Chymotrypsin-Like Cell-Based Proteasome-GloTM Assay (Promega; […]) • Cell culture 384-well plates (Greiner BioOne; 781080) • Dispensing cassette, MultiDrop Standard tube dispensing cassette (Thermo Scientific; 24072670) • DPBS (Pan BioTech; P04-36500) • Cell culture 384-well plates (Greiner BioOne; 781080) • CPD source plate: diamond-shape plate (Labcyte; LP-0200) • Intermediate plate (Labcyte; P-05525) [table] • a. Remove the plates with cells from the incubator. • b. Take all the plates including the compound plate, intermediate plate and Staurosporine plate to the ECHO. • c. Click on “Open” in the ECHO software and select the protocol “QLI5_25ul_30 uM-Grenier”. • d. Follow the on-screen prompts and instructions once you click “Start” to insert the compound plate, intermediate plate and destination plates. • e. Change the final number of destination plates on the program. • f. Follow the on-screen prompts and instructions once you click “Start” to load the Staurosporine and destination plates. • g. Once all the compounds, DMSO and Staurosporine have been transferred, place the destination plates in a wet tissue box. • h. Place the destination plates back into the incubator and incubate at 37° C., 5% CO2 for 105 minutes. • i. […] Measure the luminescence read-out using the Viktor and the protocol “Luminescence_384Well_0.2 sec”. […]

[3] = molecular target: β5 subunit of the human constitutive proteasome (CPS) (Homo sapiens, UniProt P28074); assay: β5 inhibition assay, human constitutive proteasome (Suc-LLVY-AMC); assay type: biochemical; settings: read-out: CPS, IC50 class, Suc-LLVY-AMC substrate
Procedure: The enzymatic activity of the β5 subunit of the human constitutive proteasome (CPS) is analyzed. In another assay, which differs from the assay of the human constitutive proteasome only in using the human immunoproteasome (IPS) the enzymatic activity of the β5 subunit of the human immunoproteasome (IPS) is analyzed. […] Inhibition is indicated as IC50 [nM] (“-”=not measured).

[4] = tested on: HT-29 cells; assay: CellTiter-Glo luminescent cell viability assay with HT-29 cells (72h incubation); assay type: cell-based, human; settings: read-out: CTG HT29
Procedure: Cell Titer Glo Viability Assay with HT-29 Cells (72h Incubation) The CellTiter-Glo Luminescent Cell Viability Assay (Promega) is a homogeneous method of determining the number of viable cells in culture. It is based on quantification of ATP, indicating the presence of metabolically active cells. On day 1 400 HT-29 cells per well are seeded in white 384well plates (Greiner, #781080) in 25 μl cell culture medium (DMEM (PAN-Biotech #P04-03590)+10% FCS+glutamine). After incubation for 24 h at 37° C./5% CO2 compounds or DMSO are added at different concentrations by Echo Liquid Handling Technology. Cells are further incubated in humidified chambers for 72 h at 37° C. and 5% CO2. Cells treated with the compound vehicle DMSO are used as positive controls and cells treated with 10 μM Staurosporine serve as negative controls. At day 5-72h after compound addition—the CellTiter Glo Reagent is prepared according to the instructions of the kit (Promega Inc.): Reagent is mixed 1:1 with cell culture medium. […] Following incubation the luminescence is recorded on a Victor microplate reader (Perkin Elmer) using a 200 ms integration time. The data is then analyzed with Excel using the XLFIT Plugin (dose response Fit 205) for IC50-determination. As quality control the Z′-factor is calculated from 16 positive and negative control values. […] (“-”=not measured).

- IC50 [1]: < 100 nM
- IC50 [2]: 100 to 500 nM
- IC50 [3]: < 100 nM
- IC50 [4]: < 100 nM
SMILES: Cc1ccc2cc1CNC(=O)[C@H](CCc1ccccc1)NC(=O)[C@@H](NC(=O)Cc1nc(-c3cccnc3)n[nH]1)CC(=O)N1CCCC(CCO2)C1 (stereo partly shown)
